# Measurements: patent US20150073033A1, “BIOMARKERS FOR CANCER CHARACTERIZATION AND TREATMENT” (Board of Regents, The University of Texas System, priority 2011, published 2015)
# Molecular target: EGFR (Homo sapiens, UniProt P00533)
# Test: EGF-induced EGFR phosphorylation, immunoblotting
# Assay type: cell-based
# Conditions: U87/EGFR cells; AG1478 1 μM 30 min before EGF 6 h
smiles,measurement,value
COc1cc2ncnc(Nc3cccc(Cl)c3)c2cc1OC [AG1478],EGF-induced phosphorylation of EGFR,blocked
